“Also recorded” adds a separate entry of the source.
Target: inactivating enzyme (Rattus norvegicus, UniProt P70645)
Conditions: rat liver extract, 37° C., 15, 30, 60 and 120 minutes; residual activity against Mycobacterium smegmatis ATCC 607

Sequences of proteins named here, by UniProt entry; tags and fusion partners are left off. A change or cut given only in a name is not applied to a line headed by its entry.
UniProt P70645: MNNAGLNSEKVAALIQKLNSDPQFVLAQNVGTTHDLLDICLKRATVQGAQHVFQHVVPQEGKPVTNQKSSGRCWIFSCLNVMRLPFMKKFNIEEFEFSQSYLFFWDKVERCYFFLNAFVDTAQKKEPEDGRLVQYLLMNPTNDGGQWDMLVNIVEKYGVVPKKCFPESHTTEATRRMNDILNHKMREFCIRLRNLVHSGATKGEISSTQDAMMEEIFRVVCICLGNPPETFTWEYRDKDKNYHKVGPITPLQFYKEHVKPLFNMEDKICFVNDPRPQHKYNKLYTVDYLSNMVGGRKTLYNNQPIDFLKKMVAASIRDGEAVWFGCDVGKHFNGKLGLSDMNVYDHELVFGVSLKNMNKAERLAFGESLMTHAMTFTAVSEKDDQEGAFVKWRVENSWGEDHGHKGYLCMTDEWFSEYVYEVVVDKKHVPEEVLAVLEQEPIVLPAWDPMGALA

Substance: N-methylbleomycinic acid [Compound (1)]
- Resistance to inactivating enzyme (residual activity with reaction time, FIGS. 1 to 6): markedly resistant; also recorded: not inactivated

Reference: patent US4267102A, “Bleomycin group antibiotics” (Nippon Kayaku Kabushiki Kaisha, priority 1979, dated 1981)
